PMC7835950 (Frontiers in Chemistry, 2021)

Columns and labels:
[1] = biological target: T1, OGDH (Rattus norvegicus, UniProt Q5XI78); assay: OGDH reaction (OG saturation) catalyzed by the enzyme preparation from rat liver; type: biochemical; design: the tissue fractions with the complexes enriched to a degree allowing for a robust detection of the enzymatic activities, have been used; from tissue
T1 sequence (Q5XI78 41-1023): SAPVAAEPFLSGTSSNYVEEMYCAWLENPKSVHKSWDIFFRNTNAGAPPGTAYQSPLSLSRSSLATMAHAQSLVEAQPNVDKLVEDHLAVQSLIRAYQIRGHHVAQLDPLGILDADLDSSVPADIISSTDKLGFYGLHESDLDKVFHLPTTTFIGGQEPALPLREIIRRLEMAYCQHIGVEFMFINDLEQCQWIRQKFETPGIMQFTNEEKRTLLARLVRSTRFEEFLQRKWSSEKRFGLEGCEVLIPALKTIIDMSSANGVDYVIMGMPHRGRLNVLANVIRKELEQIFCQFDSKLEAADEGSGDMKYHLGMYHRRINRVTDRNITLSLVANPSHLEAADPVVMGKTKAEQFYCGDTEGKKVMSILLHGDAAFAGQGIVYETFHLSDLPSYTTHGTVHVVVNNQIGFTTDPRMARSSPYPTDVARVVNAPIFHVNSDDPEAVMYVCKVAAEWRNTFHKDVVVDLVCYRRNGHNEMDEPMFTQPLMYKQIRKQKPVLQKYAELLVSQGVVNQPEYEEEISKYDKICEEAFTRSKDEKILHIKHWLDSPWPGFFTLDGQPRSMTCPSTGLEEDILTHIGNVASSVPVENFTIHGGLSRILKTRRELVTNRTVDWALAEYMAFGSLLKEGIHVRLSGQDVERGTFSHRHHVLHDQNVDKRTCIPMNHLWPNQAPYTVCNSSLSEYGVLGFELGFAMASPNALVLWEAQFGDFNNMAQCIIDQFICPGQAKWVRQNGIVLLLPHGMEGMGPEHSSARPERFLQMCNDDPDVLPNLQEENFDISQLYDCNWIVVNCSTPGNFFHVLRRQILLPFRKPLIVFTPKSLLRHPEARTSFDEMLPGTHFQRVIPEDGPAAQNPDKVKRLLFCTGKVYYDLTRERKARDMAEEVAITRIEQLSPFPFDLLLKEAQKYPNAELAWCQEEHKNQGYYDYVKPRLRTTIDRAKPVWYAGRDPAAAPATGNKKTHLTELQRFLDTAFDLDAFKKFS
T1 sequence (Q01205 69-454 partner): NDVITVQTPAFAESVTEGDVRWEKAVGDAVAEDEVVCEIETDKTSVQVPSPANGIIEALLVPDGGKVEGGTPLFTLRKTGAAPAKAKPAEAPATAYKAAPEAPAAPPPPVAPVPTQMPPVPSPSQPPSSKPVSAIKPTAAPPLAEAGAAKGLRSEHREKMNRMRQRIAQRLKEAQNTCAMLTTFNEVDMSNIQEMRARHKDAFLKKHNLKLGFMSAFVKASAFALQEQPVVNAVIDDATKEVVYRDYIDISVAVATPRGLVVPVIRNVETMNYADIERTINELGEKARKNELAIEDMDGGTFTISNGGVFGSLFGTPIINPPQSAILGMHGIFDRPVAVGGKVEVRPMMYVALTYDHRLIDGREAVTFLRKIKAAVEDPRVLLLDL
T1 sequence (Q6P6R2 36-509 partner): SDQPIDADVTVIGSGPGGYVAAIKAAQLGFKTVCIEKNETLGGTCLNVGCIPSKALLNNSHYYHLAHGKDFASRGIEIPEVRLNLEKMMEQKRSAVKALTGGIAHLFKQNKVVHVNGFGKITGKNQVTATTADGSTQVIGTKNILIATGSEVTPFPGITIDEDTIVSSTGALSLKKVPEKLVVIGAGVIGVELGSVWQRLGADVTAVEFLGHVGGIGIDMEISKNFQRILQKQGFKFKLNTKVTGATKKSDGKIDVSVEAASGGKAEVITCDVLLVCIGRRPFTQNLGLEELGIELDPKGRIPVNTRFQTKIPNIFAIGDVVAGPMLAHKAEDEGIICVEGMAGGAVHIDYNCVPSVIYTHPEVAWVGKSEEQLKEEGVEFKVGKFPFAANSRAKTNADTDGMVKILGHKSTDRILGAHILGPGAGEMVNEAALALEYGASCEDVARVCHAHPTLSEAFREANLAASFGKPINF
Description: (§1) Reactions were started by addition of the enzyme preparations to the assay media. The amount of enzyme preparations (0.074 mg protein for the preparation from liver and 0.023 mg protein for the preparation from heart) were chosen to induce the lowest reliably measured reaction rate (ΔA340 = 0.001/min) at 0.01 mM OA without the phosphonates.
(§2) Reaction rates were calculated from linear parts of the product accumulation curves (up to 10 min, dependent on the reaction rate), excluding the initial region, where mixing the reagents and solubilization of the preparation affected the optical density.
(§3) The former equation describes one type of the active sites. […] The assumption was based on the presence of the two enzymes, OGDH and OADH, in the employed preparations.
(§4) The Km and Amax values obtained in independent experiments using the non-linear and linear regression analyses of the experimental data, were averaged and presented as Mean ± Standard Error of Mean.
(§5) The values of Ki were determined as the ratio of the corresponding Intercepts to the Slopes. In the two-site model, the Ki(1) and Ki(2) were calculated separately from the linear approximations of Km,1eff/Amax,1eff vs. [I] and Km,2eff/Amax,2eff vs. [I] dependences, respectively. […]

[2] = biological target: T1, OGDH; assay: OGDH reaction (OG saturation) catalyzed by the enzyme preparation from rat heart; type: biochemical; design: the tissue fractions with the complexes enriched to a degree allowing for a robust detection of the enzymatic activities, have been used; from tissue; host or cells: rat heart
Description: as §1, §2, §3, §4, §5

Structure (SMILES): O=C(O)CCC(=O)C(=O)O [OG, 2-oxoglutarate]
- Amax, OG saturation [1]: 0.044 ± 0.005 μmol/min per mg of protein
- Amax, OG saturation [2]: 0.73 ± 0.05 μmol/min per mg of protein
